From US20150173847A1, “IMAGING MARKER AND UTILIZATION THEREOF” (priority 2012, published 2015)

Columns and labels:
[1] = Density of the aqueous solutions calculated from the weight of 2 mL in a tube; assay type: physicochemical; details: aqueous solution that exhibited maximum MRI contrast
[2] = T1 and T2 relaxivity measurement by spin echo MRI at varying concentrations; assay type: physicochemical; details: aqueous solution, 22° C.

Row | Substance | Density [1] | r1 (T1 relaxivity) [2] | r1 (T1 relaxivity) ([2]; listed as LST)
1 | Manganese dichloride [Mn (MnCl2)] | 1.0 g/mL | 5.5 mM⁻¹ s⁻¹ | –
2 | lithium heterotungstate [W (LST)] | 2.9 g/mL | 9.2e-05 mM⁻¹ s⁻¹ | 9.2e-05 mM⁻¹ s⁻¹
